Holding throughout (test): SPR moenomycin binding to immobilized full-length PBP
What all share (details): read-out: SPR_KD, steady-state affinity, average values

The target of experiment [1] is T1, PBP1a/1b from Bacillus subtilis (Bacillus subtilis, UniProt P39793).
T1 construct: The recombinant proteins of the full-length genes from 16 bacteria; (His)6 (N); made in house; host or cells: E. coli BL21(DE3)
T1 sequence (P39793 1-914): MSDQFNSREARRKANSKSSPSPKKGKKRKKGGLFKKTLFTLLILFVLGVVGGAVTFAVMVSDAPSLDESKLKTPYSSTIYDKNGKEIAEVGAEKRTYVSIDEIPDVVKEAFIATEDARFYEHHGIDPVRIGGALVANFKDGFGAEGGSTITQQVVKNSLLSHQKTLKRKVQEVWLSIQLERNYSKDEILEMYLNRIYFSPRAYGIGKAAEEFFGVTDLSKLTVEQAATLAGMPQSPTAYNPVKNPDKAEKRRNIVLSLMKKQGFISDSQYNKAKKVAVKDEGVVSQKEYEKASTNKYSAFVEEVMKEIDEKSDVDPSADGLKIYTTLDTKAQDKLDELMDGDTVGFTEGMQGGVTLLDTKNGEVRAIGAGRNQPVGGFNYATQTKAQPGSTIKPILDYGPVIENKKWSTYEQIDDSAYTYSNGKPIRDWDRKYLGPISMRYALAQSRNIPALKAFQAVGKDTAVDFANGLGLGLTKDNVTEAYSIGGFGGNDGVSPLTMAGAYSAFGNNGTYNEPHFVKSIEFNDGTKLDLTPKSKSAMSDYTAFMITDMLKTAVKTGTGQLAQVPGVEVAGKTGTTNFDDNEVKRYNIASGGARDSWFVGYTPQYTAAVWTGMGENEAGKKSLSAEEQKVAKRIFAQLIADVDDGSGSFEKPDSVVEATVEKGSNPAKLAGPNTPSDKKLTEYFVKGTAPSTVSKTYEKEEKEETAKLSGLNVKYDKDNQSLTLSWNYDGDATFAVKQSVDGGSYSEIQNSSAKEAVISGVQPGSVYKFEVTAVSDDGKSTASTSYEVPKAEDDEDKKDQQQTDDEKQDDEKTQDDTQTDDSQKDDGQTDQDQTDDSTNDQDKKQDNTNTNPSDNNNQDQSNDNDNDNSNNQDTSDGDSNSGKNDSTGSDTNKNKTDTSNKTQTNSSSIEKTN

For experiment [2], the target named is PBP1a from Helicobacter pylori (Helicobacter pylori, UniProt O25319).
Experiment [3] has as its target T2, PBP1b from Pseudomonas aeruginosa (Pseudomonas aeruginosa, UniProt G3XD31).
T2 sequence (G3XD31 1-774): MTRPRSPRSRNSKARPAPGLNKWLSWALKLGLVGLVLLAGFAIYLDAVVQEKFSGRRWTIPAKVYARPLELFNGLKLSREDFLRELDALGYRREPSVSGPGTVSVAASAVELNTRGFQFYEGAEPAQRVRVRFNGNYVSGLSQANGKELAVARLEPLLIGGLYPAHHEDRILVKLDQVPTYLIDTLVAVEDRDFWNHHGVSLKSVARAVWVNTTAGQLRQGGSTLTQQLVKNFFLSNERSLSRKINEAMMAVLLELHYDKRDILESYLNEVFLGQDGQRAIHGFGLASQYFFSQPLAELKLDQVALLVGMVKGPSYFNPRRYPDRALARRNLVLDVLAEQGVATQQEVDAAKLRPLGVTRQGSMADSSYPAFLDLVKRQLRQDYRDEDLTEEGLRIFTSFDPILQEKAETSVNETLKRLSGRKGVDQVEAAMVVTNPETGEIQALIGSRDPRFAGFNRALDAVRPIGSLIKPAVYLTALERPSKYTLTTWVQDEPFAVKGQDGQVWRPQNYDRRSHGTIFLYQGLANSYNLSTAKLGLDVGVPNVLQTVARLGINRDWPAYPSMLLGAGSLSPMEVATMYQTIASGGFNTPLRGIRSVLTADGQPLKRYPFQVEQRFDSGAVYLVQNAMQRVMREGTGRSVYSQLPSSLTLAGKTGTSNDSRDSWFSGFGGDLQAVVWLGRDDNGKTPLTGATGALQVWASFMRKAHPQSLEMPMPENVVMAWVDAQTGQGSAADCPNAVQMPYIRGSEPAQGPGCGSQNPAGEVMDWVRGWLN

In experiment [4] the target is T3, PBP1b from Klebsiella pneumoniae (Klebsiella pneumoniae, UniProt A0ACD7TXF1).
T3 sequence (A0ACD7TXF1 1-850): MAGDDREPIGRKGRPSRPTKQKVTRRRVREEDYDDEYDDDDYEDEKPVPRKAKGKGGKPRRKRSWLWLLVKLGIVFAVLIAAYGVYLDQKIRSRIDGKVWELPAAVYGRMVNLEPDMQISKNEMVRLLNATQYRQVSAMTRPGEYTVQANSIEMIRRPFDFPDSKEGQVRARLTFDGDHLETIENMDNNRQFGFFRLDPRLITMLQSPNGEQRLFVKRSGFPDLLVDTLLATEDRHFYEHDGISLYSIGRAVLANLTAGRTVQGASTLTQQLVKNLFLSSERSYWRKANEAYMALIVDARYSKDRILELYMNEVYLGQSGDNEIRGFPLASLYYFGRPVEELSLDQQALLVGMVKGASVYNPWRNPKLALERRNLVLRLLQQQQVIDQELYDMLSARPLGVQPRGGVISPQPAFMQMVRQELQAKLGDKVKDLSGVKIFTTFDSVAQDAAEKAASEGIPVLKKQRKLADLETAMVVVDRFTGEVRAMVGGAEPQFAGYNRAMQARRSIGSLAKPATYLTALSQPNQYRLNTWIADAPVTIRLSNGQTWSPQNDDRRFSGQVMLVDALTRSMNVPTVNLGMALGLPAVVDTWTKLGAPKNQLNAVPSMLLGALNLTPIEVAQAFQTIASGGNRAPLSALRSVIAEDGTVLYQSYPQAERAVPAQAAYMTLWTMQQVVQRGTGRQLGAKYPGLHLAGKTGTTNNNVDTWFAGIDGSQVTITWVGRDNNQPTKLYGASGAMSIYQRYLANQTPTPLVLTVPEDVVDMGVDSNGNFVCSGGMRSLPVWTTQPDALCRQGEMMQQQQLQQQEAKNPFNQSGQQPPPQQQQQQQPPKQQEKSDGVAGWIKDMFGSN

In the case of Moenomycin A [Compound 1], the Kd was found to be 1690 nM in experiment [1], 334 nM in experiment [2], 866 nM in experiment [3] and 819 nM in experiment [4].
